Source: ChEMBL document CHEMBL1124430, “Dermorphin analogues carrying an increased positive net charge in their "message" domain display extremely high mu opioid receptor selectivity” (J Med Chem, 1989)

Chains of the proteins cited; added tags and fusions are not shown.
UniProt P33535, whole entry, looked up: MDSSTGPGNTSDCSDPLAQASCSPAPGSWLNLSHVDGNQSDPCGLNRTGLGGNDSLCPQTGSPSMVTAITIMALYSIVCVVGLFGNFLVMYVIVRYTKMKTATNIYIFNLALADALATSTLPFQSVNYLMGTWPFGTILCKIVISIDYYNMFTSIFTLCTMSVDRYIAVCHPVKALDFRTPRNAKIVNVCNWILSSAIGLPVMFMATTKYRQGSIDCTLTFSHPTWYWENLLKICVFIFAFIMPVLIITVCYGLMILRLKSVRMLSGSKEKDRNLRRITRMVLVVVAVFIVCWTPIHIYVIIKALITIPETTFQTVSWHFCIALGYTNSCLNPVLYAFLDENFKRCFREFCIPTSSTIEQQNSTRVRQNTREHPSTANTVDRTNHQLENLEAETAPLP
UniProt P33533, whole entry, looked up: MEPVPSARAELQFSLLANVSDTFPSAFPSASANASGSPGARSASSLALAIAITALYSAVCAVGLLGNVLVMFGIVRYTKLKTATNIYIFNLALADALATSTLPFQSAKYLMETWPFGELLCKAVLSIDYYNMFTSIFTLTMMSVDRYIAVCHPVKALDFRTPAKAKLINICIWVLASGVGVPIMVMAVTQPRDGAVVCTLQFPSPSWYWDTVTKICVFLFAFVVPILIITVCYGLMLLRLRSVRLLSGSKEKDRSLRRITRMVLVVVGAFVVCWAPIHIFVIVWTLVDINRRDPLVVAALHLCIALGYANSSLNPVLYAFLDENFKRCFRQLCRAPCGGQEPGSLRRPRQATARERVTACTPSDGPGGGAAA

What was measured:
[1] = target: Mu-type opioid receptor (Rattus norvegicus) (UniProt P33535); assay: The relative potency of compound was measured against mu opioid receptor to that of [Leu]enkephalin in [3H]DAGO binding assay.
[2] = target: Delta-type opioid receptor (Rattus norvegicus) (UniProt P33533); assay: The relative potency of compound was measured against delta opioid receptor to that of [Leu]enkephalin in [3H]DSLET binding assay.
[3] = target: Mu-type opioid receptor (Rattus norvegicus) (UniProt P33535); assay: The relative potency of compound was measured against Opioid receptor mu 1 to that of [Leu]enkephalin in [3H]DAGO binding assay.
[4] = target: Delta-type opioid receptor (Rattus norvegicus) (UniProt P33533); assay: The relative potency of compound was measured against Opioid receptor delta 1 to that of [Leu]enkephalin in [3H]DSLET binding assay.

| Compound | Relative potency [1] | Relative potency [2] | Relative potency [3] | Relative potency [4] |
| --- | --- | --- | --- | --- |
| CCC[C@@H](NC(=O)[C@@H](N)Cc1ccc(O)cc1)C(=O)N[C@@H](Cc1ccccc1)C(=O)N[C@@H](CCCN)C(N)=O | 8.01 | 0.00115 |  |  |
| CC(C)C[C@H](NC(=O)[C@H](Cc1ccccc1)NC(=O)CNC(=O)CNC(=O)[C@@H](N)Cc1ccc(O)cc1)C(=O)O |  | 1 |  |  |
| CCCC[C@@H](NC(=O)[C@@H](N)Cc1ccc(O)cc1)C(=O)N[C@@H](Cc1ccccc1)C(=O)N[C@@H](CCCN)C(N)=O | 6.97 | 0.000881 |  |  |
| NC(=O)[C@H](CCCN=C(N)N)NC(=O)[C@H](CCCN=C(N)N)NC(=O)[C@H]1CC(=O)NCCC[C@H](NC(=O)[C@@H](N)Cc2ccc(O)cc2)C(=O)N[C@@H](Cc2ccccc2)C(=O)N1 | 0.399 | 0.00135 |  |  |
| C[C@@H](NC(=O)[C@@H](N)Cc1ccc(O)cc1)C(=O)NCC(=O)N(C)[C@@H](Cc1ccccc1)C(=O)NCCO [DAMGO] |  |  | 7.73 | 0.00198 |
